# ChEMBL document CHEMBL4130539, “Novel ureidopropanamide based N-formyl peptide receptor 2 (FPR2) agonists with potential application for central nervous system disorders characterized by neuroinflammation” (Eur J Med Chem, 2017)
# What was measured:
# [1] = target: T1, N-formyl peptide receptor 2 (Homo sapiens) (UniProt P25090); assay: Agonist activity at FPR2 in human neutrophils assessed as induction of calcium mobilization measured every 5 secs for 240 secs by Fluo-4-AM dye based fluorometric method relative to fMLF
# T1 sequence (whole entry): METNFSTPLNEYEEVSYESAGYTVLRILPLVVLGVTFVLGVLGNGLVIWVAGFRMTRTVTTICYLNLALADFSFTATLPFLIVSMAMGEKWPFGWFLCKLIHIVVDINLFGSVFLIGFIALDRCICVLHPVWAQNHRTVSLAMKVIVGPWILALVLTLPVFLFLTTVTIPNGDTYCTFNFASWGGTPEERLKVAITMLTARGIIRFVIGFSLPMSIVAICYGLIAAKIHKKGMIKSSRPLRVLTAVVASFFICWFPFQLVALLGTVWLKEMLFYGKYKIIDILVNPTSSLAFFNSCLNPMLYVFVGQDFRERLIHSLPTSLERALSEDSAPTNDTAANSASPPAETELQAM
# [2] = target: T2, fMet-Leu-Phe receptor (Homo sapiens) (UniProt P21462); assay: Agonist activity at human FPR1 expressed in human HL60 cells assessed as induction of calcium mobilization measured every 5 secs for 240 secs by Fluo-4-AM dye based fluorometric method relative to fMLF; type: functional, cell-based
# T2 sequence (whole entry): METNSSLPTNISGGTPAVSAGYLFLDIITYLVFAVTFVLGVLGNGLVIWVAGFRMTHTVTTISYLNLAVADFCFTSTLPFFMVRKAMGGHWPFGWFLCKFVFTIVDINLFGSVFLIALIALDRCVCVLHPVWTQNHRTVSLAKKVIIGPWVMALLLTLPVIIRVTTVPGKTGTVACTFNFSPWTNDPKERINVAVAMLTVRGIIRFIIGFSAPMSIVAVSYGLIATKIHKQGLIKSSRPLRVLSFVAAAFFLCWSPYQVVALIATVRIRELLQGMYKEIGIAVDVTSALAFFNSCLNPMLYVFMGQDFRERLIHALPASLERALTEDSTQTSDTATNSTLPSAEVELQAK
# [3] = target: T1, N-formyl peptide receptor 2 (Homo sapiens); assay: Agonist activity at human FPR2 expressed in human HL60 cells assessed as induction of calcium mobilization measured every 5 secs for 240 secs by Fluo-4-AM dye based fluorometric method relative to WKYMVM; type: functional, cell-based
Structure (SMILES),Efficacy [1],Efficacy [2],Efficacy [3]
Cc1ccc(C2(CNC(=O)[C@@H](Cc3ccc(C#N)cc3)NC(=O)Nc3ccc(F)cc3)CC2)cc1F,inactive,inactive,inactive
O=C(Nc1ccc(F)cc1)N[C@H](Cc1c[nH]c2ccccc12)C(=O)NCC1(c2ccccc2)CC1,inactive,inactive,inactive
COc1ccc(NC(=O)N[C@H](Cc2ccc(C#N)cc2)C(=O)NCC2(c3ccc(C)c(F)c3)CC2)cc1,inactive,inactive,inactive
COc1ccc(NC(=O)N[C@@H](Cc2c[nH]c3ccccc23)C(=O)NCC2(c3ccccc3)CC2)cc1,145%,105%,125%
COc1ccc(NC(=O)N[C@@H](Cc2ccc(C#N)cc2)C(=O)NCC2(c3ccc(C)c(F)c3)CC2)cc1,70%,55%,35%
Cc1ccc(C2(CNC(=O)[C@H](Cc3ccc(C#N)cc3)NC(=O)Nc3ccc(F)cc3)CC2)cc1F,55%,50%,65%
COc1ccc(NC(=O)N[C@H](Cc2ccc(C#N)cc2)C(=O)NCC2(c3ccc(OC(F)(F)F)cc3)CC2)cc1,inactive,inactive,inactive
COc1ccc(NC(=O)N[C@@H](Cc2ccc(C#N)cc2)C(=O)NCC2(c3ccc(OC(F)(F)F)cc3)CC2)cc1,inactive,inactive,inactive
O=C(Nc1ccccc1)N[C@H](Cc1c[nH]c2ccccc12)C(=O)NCC1(c2ccccc2)CC1,inactive,inactive,inactive
N#Cc1ccc(C[C@@H](NC(=O)Nc2ccc(F)cc2)C(=O)NCC2(c3ccc(OC(F)(F)F)cc3)CC2)cc1,inactive,inactive,inactive
COc1ccc(NC(=O)N[C@H](Cc2c[nH]c3ccccc23)C(=O)NCC2(c3ccccc3)CC2)cc1,inactive,inactive,55%
O=C(Nc1ccccc1)N[C@@H](Cc1c[nH]c2ccccc12)C(=O)NCC1(c2ccccc2)CC1,25%,55%,35%
N#Cc1ccc(C[C@H](NC(=O)Nc2ccc(F)cc2)C(=O)NCC2(c3ccc(OC(F)(F)F)cc3)CC2)cc1,inactive,inactive,inactive
O=C(Nc1ccc(F)cc1)N[C@@H](Cc1c[nH]c2ccccc12)C(=O)NCC1(c2ccccc2)CC1,inactive,60%,70%

# Active and inactive are the calls of the source. The calls are words filed in the database; no cut-off is given here.
